Earlier results as cited in patent publication US20080069869A1, “Formulations and methods for modulating satiety” (priority 2004, published 2008).

Experiments:
CCKB receptors = molecular target: T1, CCKB receptors (Homo sapiens, UniProt P32239); settings: de Montigny 1989; Bradwejn et al. 1992b; cited from earlier work
T1 sequence (P32239 1-447): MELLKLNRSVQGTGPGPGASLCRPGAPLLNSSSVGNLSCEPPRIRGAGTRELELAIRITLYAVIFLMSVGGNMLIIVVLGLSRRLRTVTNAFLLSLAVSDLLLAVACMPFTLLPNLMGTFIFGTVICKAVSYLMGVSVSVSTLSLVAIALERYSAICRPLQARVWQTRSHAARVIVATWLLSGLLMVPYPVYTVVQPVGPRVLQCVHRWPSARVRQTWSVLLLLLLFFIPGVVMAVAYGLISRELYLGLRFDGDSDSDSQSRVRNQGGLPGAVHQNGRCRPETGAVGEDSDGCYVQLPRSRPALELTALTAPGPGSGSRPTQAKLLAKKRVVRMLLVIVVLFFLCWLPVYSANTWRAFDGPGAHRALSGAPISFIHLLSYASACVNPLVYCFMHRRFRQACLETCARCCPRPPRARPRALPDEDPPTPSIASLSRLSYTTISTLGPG

CCK receptor = molecular target: T2, CCK receptor (Homo sapiens, UniProt P32239); settings: homogenates from the cerebral cortex; cited from earlier work
T2 sequence (P32239 1-447): T1 sequence (P32239 1-447)

CCK-4: the tetrapeptide, CCK-4 (CCK30-33)
affinity for CCKB receptors (CCKB receptors): high affinity and selectivity | concentrations displacing CCK receptor binding relative to sulfated CCK-8 (CCK receptor): equimolar, 10-fold or 100-fold greater
